According to patent EP2966079B1, “PYRIDOPYRIMIDINE OR PYRIMIDOPYRIMIDINE COMPOUND, PREPARATION METHOD, PHARMACEUTICAL COMPOSITION AND USE THEREOF” (Shanghai Institute of Materia Medica, Chinese Academy of …, priority 2013, dated 2014):

What was measured:
human brain glioma U87MG = assay: Cell proliferation assay (MTS method), U87MG; type: cell-based; details: U-87 MG, 72 h, read-out: U87MG IC50 (µM)
Method: (§1) Cell proliferation assay was based on two types of cell lines, i.e., human brain glioma U87MG and human prostate cancer LNCap, both of which were from ATCC. U87MG and LNCap contain PTEN gene deletion, and belongs to mTOR signal-dependent tumor cells. Cell culture media and related reagents were from GIBCO. U87MG cells were cultured in a MEM complete medium (containing 10% fetal bovine serum, 100 U/mL penicillin and 100 µg/mL streptomycin). […] Cells/compound was cultured for 3 days, and MTS method was used to test cell proliferation. MTS and PMS were purchased from Sigma company, a stock solution of MTS/PMS (20:1) was added into the test cells with 20 µL/well. After a suitable time of incubation, the proliferation assay results was recorded on a 96 well plate microplate reader. Relative cell viability% = (A490valueofadministeredgroup−lightvalueoftheblankgroup)/(lightvalueofDMSOgroup−lightvalueofblankgroup) × 100%. [formula]
(§2) The experimental data were processed with Microsoft Office Excel and Graphpad PRISM 5 to calculate IC50.

[1] = test system: human prostate cancer LNCap; assay: Cell proliferation assay (MTS method), LNCap; type: cell-based; details: 72 h, read-out: LNCap IC50 (µM)
Method: as §1, §2

Row | Compound | IC50 (human brain glioma U87MG) [µM] | IC50 [1] [µM]
1 | CNC(=O)c1cccc(-c2ccc3c(N4C5CCC4COC5)nc(N4C5CCC4COC5)nc3n2)c1 [Compound 35, 3-(2,4-di(3-oxa-8-azabicyclo[3.2.1]octan-8-yl)pyrido[2,3-d]pyrimidin-7-yl)-N-methylbenzamide] | 0.51 | 0.24
2 | CNC(=O)c1cccc(-c2ccc3c(N4CCOC[C@@H]4C)nc(N4C5CCC4COC5)nc3n2)c1 [Compound 37, 3-(2-(3-oxa-8-azabicyclo[3.2.1]octan-8-yl)-4-((S)-3-methylmorpholinyl)pyrido[2,3-d]pyrimidin-7-yl)-N-methylbenzamide] | 0.24 | 0.09
3 | CNC(=O)c1cccc(-c2ccc3c(N4CCOC[C@@H]4C)nc(N4CC5CCC(C4)O5)nc3n2)c1 [Compound 38, 3-(2-(8-oxa-3-azabicyclo[3.2.1]octan-3-yl)-4-((S)-3-methylmorpholinyl)pyrido[2,3-d]pyrimidin-7-yl)-N-methylbenzamide] | 0.47 | 0.13
4 | CNC(=O)c1cccc(-c2ccc3c(N4C5CCC4COC5)nc(N4CCOCC4)nc3n2)c1 [Compound 43, 3-(4-(3-oxa-8-azabicyclo[3.2.1]octan-8-yl)-2-morpholinylpyrido[2,3-d]pyrimidin-7-yl)-N-methylbenzamide] | 2.08 | 0.76
5 | CNC(=O)c1cccc(-c2ccc3c(N4C5CCC4COC5)nc(N4CCOC[C@@H]4C)nc3n2)c1 [Compound 44, 3-(4-(3-oxa-8-azabicyclo[3.2.1]octan-8-yl)-2-((S)-3-methylmorpholinyl)pyrido[2,3-d]pyrimidin-7-yl)-N-methylbenzamide] | 0.56 | 0.24
6 | CNC(=O)c1cccc(-c2ccc3c(N4C5CCC4COC5)nc(N4C[C@@H](C)O[C@@H](C)C4)nc3n2)c1 [Compound 45, 3-(4-(3-oxa-8-azabicyclo[3.2.1]octan-8-yl)-2-((2S,6R)-2,6-dimethylmorpholinyl)pyrido[2,3-d]pyrimidin-7-yl)-N-methylbenzamide] | 1.4 | 0.67
7 | CNC(=O)c1cccc(-c2ccc3c(N4CC5CCC(C4)O5)nc(N4CCOC[C@@H]4C)nc3n2)c1 [Compound 49, 3-(4-(8-oxa-3-azabicyclo[3.2.1]octan-3-yl)-2-((S)-3-methylmorpholinyl)pyrido[2,3-d]pyrimidin-7-yl)-N-methylbenzamide] | 1 | 0.5
8 | CNC(=O)c1cccc(-c2ccc3c(N4CC5CCC(C4)O5)nc(N4C5CCC4COC5)nc3n2)c1 [Compound 52] | 1.01 | 0.42
